Consider one substance from patent EP3331859B1, “BROAD SPECTRUM REACTIVATORS OF OPNA-INHIBITION OF HUMAN CHOLINESTERASES” (dated 2017).

Sequences of proteins named here, by UniProt entry; tags and fusion partners are left off. A change or cut given only in a name is not applied to a line headed by its entry.
UniProt P22303: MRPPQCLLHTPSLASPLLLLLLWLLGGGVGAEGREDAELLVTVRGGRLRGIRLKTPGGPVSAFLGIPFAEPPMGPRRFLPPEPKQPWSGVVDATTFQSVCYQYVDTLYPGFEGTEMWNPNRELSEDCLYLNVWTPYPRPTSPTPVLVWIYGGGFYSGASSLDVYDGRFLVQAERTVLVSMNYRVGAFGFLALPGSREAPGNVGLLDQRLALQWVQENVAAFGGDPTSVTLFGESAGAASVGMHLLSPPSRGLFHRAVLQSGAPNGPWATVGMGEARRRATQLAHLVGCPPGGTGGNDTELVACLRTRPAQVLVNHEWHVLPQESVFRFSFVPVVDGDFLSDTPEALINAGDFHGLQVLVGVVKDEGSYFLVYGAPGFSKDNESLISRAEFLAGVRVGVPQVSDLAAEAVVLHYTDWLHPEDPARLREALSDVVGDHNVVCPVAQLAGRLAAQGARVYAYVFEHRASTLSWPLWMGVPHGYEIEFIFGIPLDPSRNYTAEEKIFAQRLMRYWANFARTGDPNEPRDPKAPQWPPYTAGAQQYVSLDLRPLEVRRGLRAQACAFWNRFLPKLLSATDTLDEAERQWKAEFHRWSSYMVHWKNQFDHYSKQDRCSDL

For experiment [1], the target named is tabun-inhibited hAChE (Homo sapiens, UniProt P22303). As to the kind of experiment: In vitro reactivation of hAChE inhibited by tabun (Ellman).
Experiment [2] has as its target sarin-inhibited AChE (Homo sapiens, UniProt P22303). Description: In vitro reactivation of hAChE inhibited by sarin (Ellman).
Experiment [3] has as its target paraoxon-inhibited AChE (Homo sapiens, UniProt P22303). Description: In vitro reactivation of hAChE inhibited by paraoxon (Ellman).
Where [4] appears, read: dissociation constant of inhibited enzyme-oxime complex, 37 °C, pH 7.4.
Setting [5] is: maximal reactivation rate constant, 37 °C, phosphate buffer 0.1 M pH 7.4.

On to HLö-7, for which the values for the Kd in experiment [1] (setting [4]), in experiment [2] (setting [4]) and in experiment [3] (setting [4]) were 106 µM, 24.2 µM and 210 µM, respectively. For the same substance, the figures for the kr2 in experiment [1] (kr2 = kr/KD), in experiment [2] (kr2 = kr/KD) and in experiment [3] (kr2 = kr/KD) were 3.3 M⁻¹ s⁻¹, 583 M⁻¹ s⁻¹ and 50 M⁻¹ s⁻¹, respectively. In addition, the kr in experiment [1] (setting [5]) was 0.020 ± 0.0007 min⁻¹; in experiment [2] (setting [5]) it was 0.849 min⁻¹; in experiment [3] (setting [5]), 0.63 ± 0.04 min⁻¹.
